Measured values as given in paper PMC3646032 (PLoS ONE, 2013).
Values joined by “and” are separate entries in the source; they are usually repeats but may differ in a detail not shown here. Equal entries are not always repeated.

The chains behind the UniProt entries cited, without tags or fusion partners. Residues count along the entry.
UniProt P9WPY3, 2-176: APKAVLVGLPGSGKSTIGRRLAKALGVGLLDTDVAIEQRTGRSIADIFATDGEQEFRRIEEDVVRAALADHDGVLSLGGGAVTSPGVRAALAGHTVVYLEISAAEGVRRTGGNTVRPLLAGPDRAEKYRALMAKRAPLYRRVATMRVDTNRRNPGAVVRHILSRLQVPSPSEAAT

How the values were obtained:
MtSK [1] = molecular target: T1, MtSK (Mycobacterium tuberculosis, UniProt P9WPY3); conditions: cited from earlier work
[2] = molecular target: M. tuberculosis Shikimate Kinase (MtSK) (Mycobacterium tuberculosis, UniProt P9WPY3); assay type: biochemical; conditions: pH 7.6
MtSK [3] = molecular target: T1, MtSK; experiment: Equilibrium fluorescence spectroscopy, intrinsic tyrosine fluorescence; assay type: binding; conditions: fluorescence quench, 25°C (298.15 K), Tris-HCl pH 7.6, free MtSK; read-out: equilibrium dissociation constant (K D)
Procedure: MtSK intrinsic protein fluorescence measurements were carried out to both determine the order of substrate/product addition/dissociation on/from the catalytic site and distinguish the enzyme kinetic mechanism. As MtSK has no tryptophan residues, changes in protein tyrosine fluorescence (the polypeptide chain of MtSK has 3 Tyr residues) upon ligand binding were monitored. Fluorescence measurements were carried out in a RF-5301 PC Spectrofluorophotometer (Shimadzu) at 25°C. Excitation wavelength was 280 nm and emission spectra were collected from 300 to 500 nm. The maximum values of fluorescence intensity at 315 nm values were plotted as a function of increasing ligand concentration. Excitation and emission slits were 5 nm. As protein tyrosine typically has a low sensitivity (low molar absorption coefficient and low fluorescence quantum yield), MtSK concentration for binding experiments was 10 µM. […] However, owing to a large inner filter effect, ATP and ADP binding to free MtSK could not be determined by fluorescence spectroscopy.
Equilibrium fluorescence spectroscopy data were fitted to Eq. 4, in which F is the observed fluorescence, F 0 is the initial fluorescence, F ∞ is the maximum change in fluorescence at saturating ligand (L) concentration, and K D represents the equilibrium dissociation constant for protein:ligand binary complex formation. […]

SMILES: O=C(O)C1=C[C@@H](O)[C@@H](O)[C@H](O)C1 [SKH, [3R-(3α,4α,5β)]3,4,5-trihydroxy-1-cyclohexene-1-carboxylic acid]
- K SKH (MtSK [1]): 410 (±20) µM
- K SKH (Michaelis constant) [2]: 650 µM and 650 (±28) µM
- Kd (MtSK [3]): 113 µM
